We go through one molecule from patent publication EP0874630B1, “TOP[…] POISON AND BIS-DIOXY[…] COMBINATION THERAPY” (priority 1996, dated 1997).

“And” between values parts separate entries of the source, which are not always exact repeats. Identical values can stand only once. Like-named read-outs stand apart in the source and are kept apart here.

Data set [1] has as its system mice. Description: Lethality in healthy mice after drugs given once i.p., with or without ICRF-187 pretreatment (survivors/treated). As to conditions: 11 mice. Type of data set: in vivo. The protocol:
Toxicity was evaluated by weight and leucocyte counts.
The lethality of etoposide is decreased by pretreatment with ICRF-187 in low, non-toxic doses. Drugs were given once i.p. ICRF-187 was given immediately before etoposide.
The compiled data from two experiments showing that paclitaxel induced lethality cannot be protected by pretreamtment with ICRF-187. Groups of 11 mice were treated once i.p. with or without pretreatment with ICRF-187.

Data set [2] concerns mice. The protocol:
First generation hybrids of female random bred Swiss mice and male inbred DBA (NDF1-hybrid) mice were used as previously described (5). The mice weighed between 19 and 21 g at the start of the experiments. […] Lethality was recorded and surviving mice were sacrificed after 60 days. Toxicity was evaluated by weight and leucocyte counts. For weight evaluations mice were treated with drugs, marked and weighed for eleven consecutive days. Blood for leucocyte counts was obtained from a tail vein and counted in a hemocytometer on days 3, 5 and 7 after treatment.

The test system of the next data set is L1210 tumour cells. Description: Brain tumour model, L1210 tumour cells inoculated into the cerebrum (increase in life span). It counts as in vivo. As to conditions: Etoposide 33 mg/kg i.p. on day 2; 10^4 L1210 tumour cells i.c. on day 0; groups of 18 mice. On the procedure: (§1) In therapy studies, mice were inoculated i.p. with either 10^5 L1210 leukemia cells or 15x10^6 Ehrlich's ascites tumour cells on day 0 and treated with drugs i.p. on day 4 after inoculation. The brain tumour model consisted of 10^4 L1210 cells or 15x10^4 Ehrlich's ascites tumour cells in a volume of 30 µl of isotonic sodium chloride inoculated on day 0 into the temporal region followed by treatment i.p. on day 2, 3 or 4 after inoculation.
The hypothesis that this difference in increase in life span could be caused by the metastatic potential of the L1210 leukemia cells and a possible difference in transport of the two drugs across the blood brain barrier was investigated.
Groups of 18 mice were inoculated on day 0 and treated on day 2. The Mann-Whitney test was used for statistical evaluation.

Data set [3] has as its system Ehrlich's ascites tumour cells. Description: Brain tumour model, Ehrlich's ascites tumour cells inoculated into the cerebrum (increase in life span). It counts as in vivo. As to conditions: Etoposide 33 mg/kg on day 2; 15x10^5 Ehrlich's ascites tumour cells i.c. on day 0; groups of 9 mice. The protocol:
as §1
Groups of 9 mice were inoculated on day O and treated on day 2. The Mann-Whitney test was used for statistical evaluation.
The results in Table 6A show an increased life span from 11% to 33% corresponding to 300% compared to the increased life span in mice treated with topoisomerase II poison alone in an equitoxic dose.

As to `COc1cc([C@@H]2c3cc4c(cc3[C@@H](O[C@@H]3O[C@@H]5CO[C@@H](C)O[C@H]5[C@H](O)[C@H]3O)[C@H]3COC(=O)[C@H]23)OCO4)cc(OC)c1O` [etoposide], the Survivors / treated is 2/11 (18%) and 1/11 (9%) and 3/11 (27%) and 5/11 (45%) in the data set on mice [1] (Table 1, VP-16 90 mg/kg alone, once i.p., 90 mg/kg); 8/11 (73%) and 3/11 (27%) and 1/11 (9%) in the data set on mice [1] (Table 2, VP-16 90 mg/kg alone, 90 mg/kg); 3/11 (27%) and 2/11 (18%) in the data set on mice [1] (Table 2, VP-16 100 mg/kg alone, 100 mg/kg); 1/11 (9%) and 0/11 (0%) in the data set on mice [1] (Table 2, VP-16 120 mg/kg alone, 120 mg/kg); 2/11 (18%) and 1/11 (9%) and 4/11 (36%) and 0/11 (0%) in the data set with mice [1] (Table 2, VP-16 140 mg/kg alone, 140 mg/kg); 0/11 (0%) and 2/11 (18%) in the data set with mice [1] (Table 2, VP-16 180 mg/kg alone, 180 mg/kg). Further, the Survivors / treated was 0/11 0% and 2/11 (18%) and 1/11 1 (9%) in the data set with mice [1] (Table 2, VP-16 200 mg/kg alone, 200 mg/kg); 1/11 in the data set on mice [2] (etoposide 50 mg/kg, treatment day 1,3, and 5 (every two days)); 9/11 in the data set on mice [2] (etoposide 50 mg/kg, treatment day 1,5, and 9 (every four days)); 9/11 in the data set on mice [2] (etoposide 50 mg/kg, treatment day 1,8, and 15 (every seven days)); 0/11 in the data set with mice [2] (etoposide 70 mg/kg, treatment day 1,3, and 5 (every two days)); 2/11 in the data set with mice [2] (etoposide 70 mg/kg, treatment day 1,5, and 9 (every four days)). For the same molecule, the Survivors / treated with mice [2] (etoposide 70 mg/kg, treatment day 1,8, and 15 (every seven days)) is on record as 0/11; in the data set with mice [2] (etoposide 90 mg/kg, treatment day 1,3, and 5 (every two days)), 0/11; in the data set with mice [2] (etoposide 90 mg/kg, treatment day 1,5, and 9 (every four days)), 0/11; with mice [2] (etoposide 90 mg/kg, treatment day 1,8, and 15 (every seven days)), 0/11. In addition, the “ILS(%)” value is 13% and 21% in the data set on L1210 tumour cells; 11% in data set [3].
